Measurements as given in PMC7593677, “Discovery of N-(2-Amino-4-Fluorophenyl)-4-[bis-(2-Chloroethyl)-Amino]-Benzamide as a Potent HDAC3 Inhibitor” (Frontiers in Oncology, 2020).

Biological target: T1, HDAC8 (Homo sapiens, UniProt Q9BY41)
T1 construct: purchased BPS Bioscience
T1 sequence (Q9BY41 1-377): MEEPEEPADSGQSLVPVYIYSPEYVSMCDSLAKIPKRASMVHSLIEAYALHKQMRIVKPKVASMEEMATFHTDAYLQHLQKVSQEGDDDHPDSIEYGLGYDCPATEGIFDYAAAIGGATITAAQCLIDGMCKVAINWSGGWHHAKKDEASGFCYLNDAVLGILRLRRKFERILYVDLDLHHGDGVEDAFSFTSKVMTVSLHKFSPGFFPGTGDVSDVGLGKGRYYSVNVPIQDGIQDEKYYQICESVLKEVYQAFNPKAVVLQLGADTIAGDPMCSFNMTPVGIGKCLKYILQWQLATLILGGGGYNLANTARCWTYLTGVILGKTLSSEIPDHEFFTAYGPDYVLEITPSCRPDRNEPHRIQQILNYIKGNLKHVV
Assay: biochemical
Method: All of the HDAC enzymes tested were purchased from BPS Bioscience. First, 20 μL of each recombinant HDAC enzyme solution (HDAC1, 2, 3, 4, 6, 7, 8, and 9) was mixed with various concentrations of tested compound samples (20 μL) in a 96-well plate. The mixture was incubated at 30°C for 1 h for the dose-dependent assay. Additionally, mixtures were incubated for 15, 30, 60, and 90 min, for the time-dependent assay, and then 10 μL of fluorogenic substrate [3 mM Boc-Lys(acetyl)-AMC or Boc-Lys (trifluoroacetyl)-AMC for HDAC1/2/3/6 or HDAC4/7/8/9, respectively] was added. Then, the acetylation reaction was initiated by adding HDAC substrate working solution and incubating at 30°C for 2 h. After the desired time, 10 μL developer with trypsin and trichostatin A was added to stop the reaction, and then the mixture was incubated at 30°C for another 30 min.
A microplate reader was used to determine fluorescence intensity at excitation: 360 nm and emission: 460 nm. The inhibition ratios were calculated by comparing the fluorescence intensities from tested wells to those of controls. The IC50 curves and values were then obtained with GraphPad Prism 6.0 software.

O=C(CCCCCCC(=O)Nc1ccccc1)NO [SAHA, Vorinostat, reference compound]
IC50: 4.12 µM
